Structures are written as SMILES. The entries are a selection whose mix differs from that of the whole data set. Calls of active or inactive are those of the source.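 Rule for the calls: active = percent activation above the screen-wide mean plus 3 SD (cut at about 25% in these data); inactive = the rest.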

Sequences of proteins named here, by UniProt entry; tags and fusion partners are left off.
UniProt P55210, whole entry D23A/D198A/D206A: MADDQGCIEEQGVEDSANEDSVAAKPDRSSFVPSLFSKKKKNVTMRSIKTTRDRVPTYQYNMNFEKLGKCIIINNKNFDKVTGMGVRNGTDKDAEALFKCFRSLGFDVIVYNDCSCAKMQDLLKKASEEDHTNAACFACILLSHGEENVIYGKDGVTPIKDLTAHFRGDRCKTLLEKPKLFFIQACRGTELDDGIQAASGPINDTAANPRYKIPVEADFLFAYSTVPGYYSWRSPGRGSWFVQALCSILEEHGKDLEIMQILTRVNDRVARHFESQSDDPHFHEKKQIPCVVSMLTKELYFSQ

This experiment addresses Caspase-7 (Homo sapiens) (UniProt P55210). Kind of experiment: activation of procaspase-7 enzyme – biochemical, absorbance, HTS, human, counter-screen for procaspase-3 activator project, primary screen (AID 463210). Conditions: recombinant procaspase-7, Ac-DEVD-pNA absorbance 405 nm; at 8.5 µM; active compounds read high; D23A/D198A/D206A triple mutant, cannot self-cleave; scale: DMSO 0, 5 µM enzyme 100. The method, boiled down: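 Detection: p-Nitroaniline absorbance at 405 nm, read at 0 and 120 min; system: Uncleavable procaspase-7 mutant enzyme; evaluation: % activation from two-timepoint absorbance difference, scaled to controls; times: 1 h enzyme–compound preincubation and 2 h substrate reaction, both 25 °C; buffer or medium: Zinc-free HEPES pH 7.4 with 300 mM NaCl, 0.01% Triton X-100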
Consider `COc1ccccc1OP(C)(=O)Nc1ccccc1` (configuration not stated), for which the activation was inactive: 10.5%.
As for `CN(C)CCOC(=O)C(O)(c1ccccc1)C1CCCC1` (configuration not stated), the figure is inactive: 6.98%.

These data come from PubChem BioAssay AID463210 (The Scripps Research Institute Molecular Screening Center, 2010).
